ChEMBL document CHEMBL1275511, “Molecular and biochemical characterization of SHV-56, a novel inhibitor-resistant beta-lactamase from Klebsiella pneumoniae” (Antimicrob Agents Chemother, 2008)

Key:
Conditions in all cases: JM109
Escherichia coli [1] = experiment: Activity of Escherichia coli Inhibitor-resistant beta-lactamase SHV-56
Escherichia coli [2] = experiment: Ratio of Kcat to Km for Escherichia coli Inhibitor-resistant beta-lactamase SHV-56
[3] = substrate: CC1(C)S[C@@H]2[C@H](NC(=O)Cc3ccccc3)C(=O)N2[C@H]1C(=O)O; experiment: (§1) Activity of Escherichia coli beta-lactamase SHV-11
[4] = substrate: CC1(C)S[C@@H]2[C@H](NC(=O)[C@H](C(=O)O)c3ccsc3)C(=O)N2[C@H]1C(=O)O; experiment: as §1

| Molecule | Km (Escherichia coli [1]) [µM] | kcat (Escherichia coli [1]) [s⁻¹] | kcat/Km (Escherichia coli [2]) [M⁻¹ s⁻¹] | Km [3] [µM] | kcat [3] [s⁻¹] | kcat [4] [s⁻¹] |
| --- | --- | --- | --- | --- | --- | --- |
| CC1(C)S[C@@H]2[C@H](NC(=O)Cc3ccccc3)C(=O)N2[C@H]1C(=O)O | 40 | 60 | 1.5e+06 |  |  |  |
| Beta-lactamase SHV-11 (Escherichia coli), Q7X575 (protein) MRYIRLCIISLLATLPLAVHASPQPLEQIKQSESQLSGRVGMIEMDLASGRTLTAWRADERFPMMSTFKVVLCGAVLARVDAGDEQLERKIHYRQQDLVDYSPVSEKHLADGMTVGELCAAAITMSDNSAANLLLATVGGPAGLTAFLRQIGDNVTRLDRWETELNEALPGDARDTTTPASMAATLRKLLTSQRLSARSQRQLLQWMVDDRVAGPLIRSVLPAGWFIADKTGAGERGARGIVALLGPNNKAERIVVIYLRDTPASMAERNQQIAGIGAALIEHWQR |  |  |  | 20 | 40 | 2 |
